Assay [1] has as its target human RANKL (receptor activator of NF-κB ligand) (human) (UniProt O14788). Kind of assay: cell-based or functional assay.
Assay [2] shares this target. The experiment in a line: SPR (BIACORE), purified antibody, 25°C.
Assay [3] has the same target. Kind of assay: SPR (BIACORE), purified antibody, 37°C.
Assay [4] has as its target penta-his-tagged hRANKL (human). Kind of assay: competition ELISA: 150 pM his-hRANKL pre-mixed with antibody, free RANKL detected on hRANK-hFc plate.
In assay [5] the target is penta-his-tagged monkey (Macaca fascicularis) RANKL (Macaca fascicularis). The experiment in a line: competition ELISA: 150 pM his-mfRANKL pre-mixed with antibody, free RANKL detected on hRANK-hFc plate.
Assay [6] has as its target human RANKL (receptor activator of NF-κB ligand) (human) (UniProt O14788). Kind of assay: SPR (BIACORE), purified antibody, 25°C; 25° C.

In turn, H4H001G (antibody) showed an IC50, hRANKL-inducible luciferase activity in HK293/RANK/NFκB-luc-eGFP cells in assay [1] of 0.111 nM. The Kd amounted to 0.228 nM in assay [2] and 0.0495 nM in assay [3]. Further, the IC50 in assay [4] stood at 0.14 nM; in assay [5], 0.825 nM.
H4H001P (antibody) returned an IC50, hRANKL-inducible luciferase activity in HK293/RANK/NFκB-luc-eGFP cells in assay [1] of 0.106 nM. Moreover, the Kd in assay [3] stood at 0.041 nM; in assay [6] it was 0.186 nM. Further, the 50% inhibitory concentration (IC50) in assay [4] was 0.105 nM; in assay [5], 0.71 nM.
H4H003P (antibody): the IC50, hRANKL-inducible luciferase activity in HK293/RANK/NFκB-luc-eGFP cells in assay [1] amounted to 0.181 nM. Further, the values for the Kd in assay [2] and in assay [3] were 0.251 nM and 0.017 nM, respectively. The IC50 came out at 0.085 nM in assay [4] and 0.9 nM in assay [5].
In the same order, the values of H4H004P (antibody) are 0.143 nM, 0.199 nM, 0.0149 nM, 0.155 nM and 1.27 nM.

The values are drawn from patent US20120114665A1.
